This assay has as its target human melanocortin receptor 4 (MC4R) (Homo sapiens, UniProt P32245). As to the kind of experiment: Luciferase assay. Particulars: agonistic activity at MC4R (Table 18); patent does not state whether luciferase or cAMP assay; tested form: salt (Table 4 scaffold prints only 'salt). The protocol:
Cell lines expressing human melanocortin receptor 4 (MC4R) were dissociated from tissue culture dishes by rinsing with Ca^++, Mg^++ free DPBS, treated with 1× Trypsin/EDTA solution for 1 min at 37° C., and resuspended with DMRM (GIBCO-BRL) supplemented with 10% FBS. The cells were counted and diluted with DMEM supplemented with 10% FBS and 200 ug/ml of Geneticin to […]. 90 ul of cell suspension was plated onto each well of 96-well black and clear bottom culture plates (Costar). After the incubation for 24 h in the atmosphere of 6% CO2 at 37° C., 10 ul of NDP-MSH and test compounds diluted in DMSO were added to each well. The final DMSO concentration was 1%. After 4 h of incubation in the atmosphere of 6% CO2 at 37° C., 50 ul of Bright-Glo (Promega) was added to each well. Luciferase activity was measured by using L-Max luminometer (Molecular Device). The amount of luciferase activity induced by treatment with NDP-MSH was defined as 100% to obtain the relative efficacy of test compounds. The EC0.5 MSH was defined as the concentration of test compounds that results in half maximal activity of NDP-MSH. The EC50 was defined as the concentration of test compound that results in half maximal activity of its own.
A general note: Cyclic AMP is a second messenger, typically raised through Gs and lowered through Gi signalling.

Chains of the proteins cited; added tags and fusions are not shown.
UniProt P32245, whole entry: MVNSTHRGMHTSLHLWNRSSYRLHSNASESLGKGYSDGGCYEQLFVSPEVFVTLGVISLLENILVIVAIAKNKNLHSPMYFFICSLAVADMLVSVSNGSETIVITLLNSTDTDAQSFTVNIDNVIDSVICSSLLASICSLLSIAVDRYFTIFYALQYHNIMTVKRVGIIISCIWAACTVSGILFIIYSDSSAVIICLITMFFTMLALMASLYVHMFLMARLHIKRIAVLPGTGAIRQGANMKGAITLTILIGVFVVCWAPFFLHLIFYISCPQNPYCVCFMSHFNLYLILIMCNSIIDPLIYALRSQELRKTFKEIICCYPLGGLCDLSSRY

SMILES strings stand for the structures.

What is called EC50 is the concentration giving half of the maximal effect. As to `COC(=O)[C@@H]1C[C@H](N(C(=O)C(C)(C)C)C2CCC(C)(C)CC2)CN1C(=O)[C@@H]1CN(C(C)(C)C)C[C@H]1c1ccc(Cl)cc1`, the EC50 was 54 nM.

These data come from patent US7879852B2, “Melanocortin receptor agonists” (LG Life Sciences Ltd., priority 2006, dated 2011).
